These results are taken from PubChem BioAssay AID651550 (National Center for Advancing Translational Sciences (NCATS), 2012).

Only a part is listed here, and it is no random draw. Activity calls are given as the source filed them. No stated cut-off is given here; in the data, active means activity change below about -80%; inconclusive means mostly about -51% to -80%; inactive means weaker than that.
On the % scale 0 is the no-effect control and ±100 the full control effect.

The assay has as its target RAC-alpha serine/threonine-protein kinase (Homo sapiens) (UniProt P31749). Nature of the assay: HTS Assay for Inhibitors of Akt Phophorylation: Primary Screen. The following applies: Neuro2A IGF-stimulated pAkt S473 HTRF, 20 min; at 50 µM; stronger effect = lower value. The text has this: The serine/threonine protein kinase Akt (protein kinase B) regulates various cellular processes, including cell survival, growth, proliferation, migration and differentiation. It has been well established that Akt is activated through two essential steps involving membrane translocation and phosphorylation. Cytosolic Akt is recruited to the plasma membrane via the interaction between the PH domain and membrane PIP3 produced by phosphoinositide-3 kinase (PI3K) upon growth factor receptor stimulation. The membrane-Akt interaction results in conformational changes of Akt, enabling its activation through phosphorylation at T308 in the kinase domain and at S473 in the C-terminal hydrophobic motif by PDK1 and mTOR-rictor complex (mTORC2), respectively. […] These findings indicate that S473 phosphorylation, as an important modulator of Akt activation, may be a valuable drug target for cell growth, survival, proliferation and differentiation. These inhibitors also may have significant therapeutic potential with fewer side effects, especially for the conditions involving hyperactive Akt signaling, such as cancer and Alzheimer's disease.
To this end, a miniaturized assay was developed to be screened against the Molecular Libraries Small Molecule Repository (MLSMR).
NIH Chemical Genomics Center [NCGC]
NIH Molecular Libraries Probe Centers Network [MLPCN]
Assay Submitter (PI): Hee-Yong Kim, National Institute on Alcohol Abuse and Alcoholism
3 uL of Neuro2A cell suspension in DMEM containing 0.5% FBS and […] antibiotics mix was plated in a white solid bottom tissue culture-treated 1536-well plate (Greiner Bio-One, Monroe, NC) at 4,500 cells per well and incubated overnight at 37 deg C. 23 nL/well of compound solutions in DMSO was added with Pintool transfer (Kalypsis, San Diego, CA) at single […] final concentration. Then, the cells were stimulated with 1.5 uL of IGF (6 nM final concentration) and incubated at 37 deg C for 20 min. The reaction was terminated by the addition of 1.5 uL blocking reagent mixed with lysis buffer (1:25 correspondingly) provided with HTRF(R) Phospho Akt (Ser473) kit (Cisbio US, Bedford, MA), with following incubation for 50 min at ambient temperature. The detection HTRF conjugates from the kit were prepared according to the protocol, pre-mixed 1:1 prior to dispensing, and 2 uL/well was added with BioRAPTR FRD dispenser (Beckman Coulter). The assay plates were incubated for 24 hours at ambient temperature, and the HTRF fluorescence was measured using Envision plate reader (PerkinElmer) with excitation at 330nm, emission at 615nm (Eu(3)-Cryptate donor signal) and 665nm (d2 acceptor signal). The ratio of […] was calculated for each well.
(In general: In TR-FRET formats the signal depends on donor and acceptor labels being close together.)
In the case of `COC(=O)c1cc2c(s1)N=C(c1ccccc1)N(C)P2(=O)N1CCOCC1` (stereo not given), the activity change was inactive: 7.95%.
As for `CCC(=O)N1C2C3N(C(=O)CC)C1C1N(C(=O)CC)C(C(N1C(=O)CC)N3C(=O)CC)N2C(=O)CC`, the activity change is inactive: -1.69%.
Consider `CC(=O)N1C2C3N(C(C)=O)C1C1N(C(C)=O)C(C(N1C(C)=O)N3C(C)=O)N2C(C)=O`, for which the activity change was inactive: -2.06%.
Take `CC1CCN(C(=O)Oc2c(Cl)cc(Cl)c3cccnc23)CC1`: the activity change is active: -108%.
As to `CCOP(=O)(Nc1ccccc1)OCC`, the activity change was inactive: -4.72%.
As to `CCN(CC)C(=S)SC(NC=O)C(Cl)(Cl)Cl` (stereo not given), the activity change is inactive: 2%.
Under `ClCCSc1nnc(-c2cccnc2)o1` stands inactive: 6.29%; under `CCC(C)N(CC(C)C)C(=S)SC(NC(C)=O)C(Cl)(Cl)Cl` (stereo not given), inactive: 0.187%; under `CC1(CBr)Cn2c(nc3ccccc3c2=O)S1` (stereo not given), inactive: -5.19%.
`O=[N+]([O-])c1ccc2c(c1)nnn2O`: the activity change is inactive: 7.94%.
